Values of other authors in patent publication US10166246B2, “TGR5 agonist complexes for treating diabetes and cancer” (City of Hope, priority 2014, dated 2019).

Details: in vivo; cited from earlier work

CN(C)C(=N)N=C(N)N [Metformin, N,N-dimethylbiguanidine]
metabolism: not metabolized
time to steady state: one or two
